ChEMBL document CHEMBL4304752, “Synthesis and Molecular Properties of Nerve Agent Reactivator HLö-7 Dimethanesulfonate” (2019)

Assays:
[1] = Half life at physiological pH and temperature
[2] = Solubility of compound in water; conditions: buffer

NC(=O)c1cc[n+](COC[n+]2ccc(/C=N/O)cc2/C=N/O)cc1.[I-].[I-]
t1/2 [1]: 12 h
solubility [2]: 20 mg/mL
